Drawing on PubChem BioAssay (Tox21), this text covers activity, negative = inhibition for 29 compounds.

Protein sequences, listed by entry. Tags and fused reporters are not part of them.
UniProt P28223, whole entry, looked up: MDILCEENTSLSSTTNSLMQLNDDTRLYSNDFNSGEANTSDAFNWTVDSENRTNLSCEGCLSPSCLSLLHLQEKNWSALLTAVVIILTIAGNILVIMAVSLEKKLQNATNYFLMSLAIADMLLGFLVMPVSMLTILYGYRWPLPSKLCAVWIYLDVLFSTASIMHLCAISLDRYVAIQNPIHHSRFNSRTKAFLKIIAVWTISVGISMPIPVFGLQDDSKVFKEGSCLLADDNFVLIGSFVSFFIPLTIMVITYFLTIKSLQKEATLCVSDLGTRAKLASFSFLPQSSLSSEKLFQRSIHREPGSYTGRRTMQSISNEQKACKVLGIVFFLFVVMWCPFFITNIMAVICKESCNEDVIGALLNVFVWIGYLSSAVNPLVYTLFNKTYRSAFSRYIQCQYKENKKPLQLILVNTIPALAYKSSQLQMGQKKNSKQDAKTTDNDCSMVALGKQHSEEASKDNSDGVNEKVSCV

The structures appear in SMILES notation. Several values for one entry are separate records, joined by “and”; a condition that tells them apart may be missing. Equal entries are not always repeated. Only a part is listed here, and it is no random draw. Results filed as inconclusive are left out. Activity calls are given as the source filed them. Calls follow the shape of the full dose curve.
% is scaled to controls: 0 for no effect and ±100 for the full control effect.

The assay addresses 5-hydroxytryptamine receptor 2A (Homo sapiens) (UniProt P28223). Briefly: 5-hydroxytryptamine receptor 2A (HTR2A) small molecule antagonists, cell-based qHTS assay (AID 1963586). Also: nearly all actives have a fitted effect of over 45% in size. As to conditions: HTR2A-CHO cells, DOI-induced calcium flux, fluorescence; at 61.5 µM (top of the series) unless noted. From the text: National Center for Advancing Translational Sciences [NCATS]
Division of Preclinical Innovation [DPI]
U.S. Environmental Protection Agency [EPA]
National Institutes of Environmental Health Sciences [NIEHS]
National Toxicology Program [NTP]
U.S. Food and Drug Administration [FDA]
The HTR2A receptor is a subtype of the 5-HT2 receptor that belongs to the serotonin receptor family and is a G protein-coupled receptor (GPCR). The HTR2A-CHO cell line stably expressing human 5-hydroxytryptamine receptor 2A (HTR2A) can be used for screening antagonists of interactions between 5-HT2 and its ligands. The HTR2A-CHO calcium flux assay is a homogeneous fluorescence-based assay for detecting the intracellular calcium level using FDSS kinetic plate reader system.
Tox21 Assay Protocol Summary:
HTR2A-CHO cells were dispensed at 2000 cells/3uL/well in 1536-well black-clear bottom plates using a Multidrop Dispenser. After the assay plates were incubated at a 37 C/5% CO2 incubator for 18 h, 3 uL of Dye Loading Buffer was transferred to the assay plate by a Flying Reagent Dispenser. The assay plates were incubated at 37 C for 1h. For antagonist mode, 23 nL of compounds dissolved in DMSO, positive controls or DMSO only was transferred to the assay plate by a pin tool. After 5 min incubation at room temperature, 1.5 uL of 4-Iodo-2,5-dimethoxy-alpha-methylbenzeneethanamine hydrochloride (DOI) at 4nM was added to each well. The fluorescence intensity in the plates was measured using FDSS 7000EX kinetic plate reader for 3 min at 1 sec intervals.
As to `O=C(Cl)Oc1ccccc1`, the activity, negative = inhibition is inactive: 2.42%. Turning to `Cc1cc([N+](=O)[O-])cc([N+](=O)[O-])c1O`, the activity, negative = inhibition is inactive: 6.34%.

On to `O=[As]c1ccccc1` (centres undefined), for which the activity, negative = inhibition was inactive: 0.956%. As to `CC(C)CCCCCCCOP(OCCCCCCCC(C)C)Oc1ccccc1`, the activity, negative = inhibition is inactive: 13.8%.

As to `CCCCCCCCCCCCCC[P+](CCCCCC)(CCCCCC)CCCCCC`, the activity, negative = inhibition is inactive: 21.3%. As to `O=P(Cl)(Cl)c1ccccc1`, the activity, negative = inhibition is inactive: 8.86%. Regarding `CN(N=O)C(=N)N[N+](=O)[O-]`, the activity, negative = inhibition was inactive: 81.7%.

On to `CCC(C)(OOC(C)(C)C)OOC(C)(C)C`, for which the activity, negative = inhibition was inactive: 3.58% [at 12.7 µM].

For the compound `CCCCC(CC)CO[P+](=O)OCC(CC)CCCC` (centres undefined), the activity, negative = inhibition was inactive: 1.78%. `CN(C(=O)Cc1ccccc1)[C@H]1CC[C@@]2(CCCO2)C[C@@H]1N1CCCC1`: the activity, negative = inhibition is inactive: -1.61% [at 28.5 µM]. Take `O=C(Cl)OCCOC(=O)Cl`: the activity, negative = inhibition was inactive: -3.4%. For `Cc1cc([N+](=O)[O-])c(O)c([N+](=O)[O-])c1`, the activity, negative = inhibition was inactive: -19.3%.

Consider `O=[p+]1oc2ccccc2c2ccccc21` (centres undefined), for which the activity, negative = inhibition was inactive: 25.1%. For the compound `ClP(Cl)c1ccccc1`, the activity, negative = inhibition is inactive: 3.97%. With `O=C1C2CC=CCC2C(=O)N1SC(Cl)(Cl)C(Cl)Cl` (centres undefined), the activity, negative = inhibition is inactive: -33.7% and inactive: -3.23%. Consider `CN(C(=O)Cc1cccc2occc12)[C@H]1CC[C@@]2(CCCO2)C[C@@H]1N1CCCC1`, for which the activity, negative = inhibition is inactive: 20.2%. Take `NC(=O)Nc1ccc([As](=O)(O)O)cc1`: the activity, negative = inhibition was inactive: -13.1%.

In the case of `N#CSc1ccc([N+](=O)[O-])cc1[N+](=O)[O-]`, the activity, negative = inhibition is inactive: 0.82%. For `O=[P+](Oc1ccccc1)Oc1ccccc1`, the activity, negative = inhibition was inactive: -39.3%. With `CCCCOP(OCCCC)OCCCC`, the activity, negative = inhibition is inactive: -1.78%. With `COP(=S)(Cl)OC`, the activity, negative = inhibition was inactive: -2%. For the compound `CC(C)OP(=S)(OC(C)C)SCCNS(=O)(=O)c1ccccc1`, the activity, negative = inhibition was inactive: 14.6%. Take `CCOC(=O)Cl`: the activity, negative = inhibition was inactive: -2.11%.

Turning to `CCCCO[P+](=O)OCCCC`, the activity, negative = inhibition is inactive: 2.96% and inactive: -0.588%. Turning to `CCOP(=S)(CC)Sc1ccccc1` (centres undefined), the activity, negative = inhibition is inactive: -3.28%. Consider `O=P(Cl)(Oc1ccccc1)Oc1ccccc1`, for which the activity, negative = inhibition was inactive: -8.36%. In the case of `O=[N+]([O-])c1ccc([N+](=O)[O-])cc1`, the activity, negative = inhibition was inactive: -10.6%.

On to `COC(=O)Cl`, for which the activity, negative = inhibition was inactive: 0.0561%. As to `O=[N+]([O-])c1ccc(S(=O)(=O)O)c([N+](=O)[O-])c1`, the activity, negative = inhibition was inactive: 25.2%.
